Results published in patent US7320679B2, “Therapeutic use of growth factor, and delivery device, especially for the treatment of intimal hyperplasia” (Ark Therapeutics, Ltd., priority 1996, dated 2008).
Several values for one entry are separate records, joined by “and”; a condition that tells them apart may be missing. Identical values can stand only once.

Tested on: p42/p44 MAP kinases
Assay: MAP kinase assay (phospho-p42/p44 immunoblot) in HUVEC
Format: cell-based, human
Details: 15 min exposure
Method: Cell Culture: HUVECs were obtained either from Clonetics and cultured in the manufacturer's own medium supplemented with 2% FBS, or were grown from fresh umbilical cords by collagenase digestion and cultured on 1% gelatin-coated plates in medium 199 supplemented with 20% FCS and endothelial cell growth supplement (Wheeler-Jones et al, Biochem. J. (1996) 315:407-416). For experimental purposes, primary cultures of HUVEC were dispersed by treatment with 0.05% trypsin/0.02% EDTA for 5 min at 37° C. and then replated in either 90 mm, 60 mm or 35 mm plastic dishes, or onto 24-well plates. […] The PGI2 content of cell supernatants was quantified by radioimmunoassay of 6-keto-PGF1a, the stable breakdown product of PGI2 as previously described (Wheeler-Jones et al, supra). Arachidonic Acid Release: Arachidonic acid release was determined essentially as described (Domin and Rozengurt, J. Biol. Chem. (1993) 268:8927-8934.). […] After treatment, the medium was removed, centrifuged in a microcentrifuge at 16,000×g for 5 min, and the radioactivity in the supernatant was determined by counting in a scintillation counter. […] Assay of vWF Secretion: vWF secretion was measured by ELISA (Wheeler-Jones et al, supra) in samples of medium obtained from confluent cultures of HUVECs which had been treated with factors, as indicated. […]

VEGF
lowest concentration with detectable increase in MAP kinase activity: 0.5 ng/mL and 1 ng/mL
